Amino acid sequences for entries named in this document (tags omitted).
UniProt O60502, whole entry: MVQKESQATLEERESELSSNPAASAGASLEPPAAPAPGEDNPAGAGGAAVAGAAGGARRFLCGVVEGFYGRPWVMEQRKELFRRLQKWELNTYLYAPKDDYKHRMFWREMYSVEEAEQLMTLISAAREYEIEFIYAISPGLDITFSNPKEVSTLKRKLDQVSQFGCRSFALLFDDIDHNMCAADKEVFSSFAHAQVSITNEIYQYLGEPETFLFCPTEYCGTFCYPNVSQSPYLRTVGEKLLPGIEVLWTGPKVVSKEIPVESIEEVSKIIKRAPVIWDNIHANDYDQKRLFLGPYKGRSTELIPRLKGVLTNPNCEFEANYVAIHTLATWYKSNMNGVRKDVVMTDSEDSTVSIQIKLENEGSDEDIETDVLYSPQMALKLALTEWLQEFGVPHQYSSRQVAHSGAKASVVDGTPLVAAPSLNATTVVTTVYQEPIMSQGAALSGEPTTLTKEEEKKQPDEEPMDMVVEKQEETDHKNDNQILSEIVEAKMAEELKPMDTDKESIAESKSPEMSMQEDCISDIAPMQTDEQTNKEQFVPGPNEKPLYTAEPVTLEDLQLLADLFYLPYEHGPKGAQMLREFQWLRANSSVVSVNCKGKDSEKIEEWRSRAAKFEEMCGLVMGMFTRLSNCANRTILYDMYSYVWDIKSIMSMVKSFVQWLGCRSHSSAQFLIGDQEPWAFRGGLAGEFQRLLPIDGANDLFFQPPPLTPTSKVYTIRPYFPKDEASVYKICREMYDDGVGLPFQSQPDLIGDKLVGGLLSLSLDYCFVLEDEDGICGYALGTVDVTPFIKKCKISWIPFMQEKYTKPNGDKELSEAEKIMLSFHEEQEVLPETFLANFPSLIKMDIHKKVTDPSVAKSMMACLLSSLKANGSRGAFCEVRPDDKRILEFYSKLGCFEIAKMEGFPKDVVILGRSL

In US20210277003A1, “OGA INHIBITOR COMPOUNDS” (Janssen Pharmaceutica NV, priority 2018, published 2021):

Assays:
[1] = molecular target: recombinant human Meningioma Expressed Antigen 5 (MGEA5), also referred to as O-GlcNAcase (OGA) (Homo sapiens, UniProt O60502); assay: OGA biochemical assay: inhibition of hydrolysis of fluorescein mono-ß-D-N-Acetyl-Glucosamine (FM-GlcNAc), fluorescence readout; conditions: FM-GlcNAc substrate
Excerpt: The assay is based on the inhibition of the hydrolysis of fluorescein mono-ß-D-N-Acetyl-Glucosamine (FM-GlcNAc) (Mariappa et al. 2015, Biochem J 470:255) by the recombinant human Meningioma Expressed Antigen 5 (MGEA5), also referred to as O-GlcNAcase (OGA). The hydrolysis FM-GlcNAc (Marker Gene technologies, cat #M1485) results in the formation of ß-D-N-glucosamineacetate and fluorescein. The fluorescence of the latter can be measured at excitation wavelength 485 nm and emission wavelength 538 nm. An increase in enzyme activity results in an increase in fluorescence signal. Full length OGA enzyme was purchased at OnGene (cat #TP322411). The enzyme was stored in 25 mM Tris.HCl, pH 7.3, 100 mM glycine, 10% glycerol at −20° C. Thiamet G and GlcNAcStatin were tested as reference compounds (Yuzwa et al. 2008 Nature Chemical Biology 4:483; Yuzwa et al. 2012 Nature Chemical Biology 8:393). The assay was performed in 200 mM Citrate/phosphate buffer supplemented with 0.005% Tween-20. 35.6 g Na2HPO4 2 H2O (Sigma, #C0759) were dissolved in 1 L water to obtain a 200 mM solution. 19.2 g citric acid (Merck, #1.06580) was dissolved in 1 L water to obtain a 100 mM solution. pH of the sodium phosphate solution was adjusted with the citric acid solution to 7.2. The buffer to stop the reaction consists of a 500 mM Carbonate buffer, pH 11.0. 734 mg FM-GlcNAc were dissolved in 5.48 mL DMSO to obtain a 250 mM solution and was stored at −20° C. OGA was used at a 2 nM concentration and FM-GlcNAc at a 100 uM final concentration. Dilutions were prepared in assay buffer. 50 nl of a compound dissolved in DMSO was dispensed on Black Proxiplate™ 384 Plus Assay plates (Perkin Elmer, #6008269) and 3 μl fl-OGA enzyme mix added subsequently. Plates were pre-incubated for 60 min at room temperature and then 2 μl FM-GlcNAc substrate mix added. […] Plates were briefly centrifuged for 1 min at 1000 rpm and incubate at room temperature for 6 h. To stop the reaction 5 μl STOP buffer were added and plates centrifuge again 1 min at 1000 rpm. Fluorescence was quantified in the Thermo Scientific Fluoroskan Ascent or the PerkinElmer EnVision with excitation wavelength 485 nm and emission wavelength 538 nm. For analysis a best-fit curve is fitted by a minimum sum of squares method. From this an IC50 value and Hill coefficient was obtained. High control (no inhibitor) and low control (saturating concentrations of standard inhibitor) were used to define the minimum and maximum values.

[2] = system: OGA in HEK293 cells inducible for P301L mutant human Tau (isoform 2N4R); assay: OGA cellular assay: immunocytochemical detection of O-GlcNAcylated proteins (CTD110.6 antibody); conditions: 6 hours incubation; for Cellular Emax (%): maximum = Thiamet G 200 uM
Protocol: HEK293 cells inducible for P301L mutant human Tau (isoform 2N4R) were established at Janssen. Thiamet-G was used for both plate validation (high control) and as reference compound (reference EC50 assay validation). OGA inhibition is evaluated through the immunocytochemical (ICC) detection of O-GlcNAcylated proteins by the use of a monoclonal antibody (CTD110.6; Cell Signaling, #9875) detecting 0-GlcNAcylated residues as previously described (Dorfmueller et al. 2010 Chemistry & biology, 17:1250). Inhibition of OGA will result in an increase of O-GlcNAcylated protein levels resulting in an increased signal in the experiment. Cell nuclei are stained with Hoechst to give a cell culture quality control and a rough estimate of immediate compounds toxicity, if any. ICC pictures are imaged with a Perkin Elmer Opera Phenix plate microscope and quantified with the provided software Perkin Elmer Harmony 4.1.
Cells were propagated in DMEM high Glucose (Sigma, #D5796) following standard procedures. 2 days before the cell assay cells are split, counted and seeded in Poly-D-Lysine (PDL) coated 96-wells (Greiner, #655946) plate at a cell density of 12,000 cells per cm^2 (4,000 cells per well) in 100p of Assay Medium (Low Glucose medium is used to reduce basal levels of GlcNAcylation) (Park et al. 2014 The Journal of biological chemistry 289:13519). At the day of compound test medium from assay plates was removed and replenished with 90 µl of fresh Assay Medium. 10p of compounds at a 10 fold final concentration were added to the wells. Plates were centrifuged shortly before incubation in the cell incubator for 6 hours. DMSO concentration was set to 0.2%. Medium is discarded by applying vacuum. For staining of cells medium was removed and cells washed once with 100 μl D-PBS (Sigma, #D8537). From next step onwards unless other stated assay volume was always 50p and incubation was performed without agitation and at room temperature. Cells were fixed in 50 μl of a 4% paraformaldehyde (PFA, Alpha aesar, #043368) PBS solution for 15 minutes at room temperature. […] Before analysis samples were washed 2 times manually for 5 minutes in ICC base buffer.
Imaging is performed using Perkin Elmer Phenix Opera using a water 20× objective and recording 9 fields per well. Intensity readout at 488 nm is used as a measure of O-GlcNAcylation level of total proteins in wells. To assess potential toxicity of compounds nuclei were counted using the Hoechst staining. IC50-values are calculated using parametric non-linear regression model fitting. As a maximum inhibition Thiamet G at a 200 uM concentration is present on each plate. In addition, a concentration response of Thiamet G is calculated on each plate.

Row | Structure (SMILES) | Enzymatic Emax (%) [1] [%] | Enzymatic hOGA; pIC50 [1] | Cellular hOGA; pEC50 [2] | Cellular Emax (%) [2] [%] | Enzymatic Emax (%) ([1]; tested form: HCl) | Enzymatic hOGA; pIC50 ([1]; tested form: HCl) | Cellular Emax (%) ([2]; tested form: HCl) | Cellular hOGA; pEC50 ([2]; tested form: HCl)
1 | FC(F)(Cn1ccc2c(Nc3c(Cl)cccc3Cl)nccc21)C1CC1 | 102 | 8.8 | 8.47 | 91 |  |  |  | 
2 | CCCCn1ccc2c(Nc3ccc(C)c4c3cnn4C)nccc21 |  |  |  |  | 101.28 | 7.13 | 63.19 | 6.29
3 | CCCC(C)n1ccc2c(Nc3c(Cl)cccc3Cl)nccc21 (single isomer, unassigned) [105b] | 97.73 | 6.49 |  |  |  |  |  | 
4 | Cc1ccnc(C)c1Nc1nccc2c1ccn2CC(C)(F)F | 101.115 | 8.5 | 7.52 | 97.3957 |  |  |  | 
5 | FC1(F)CC1CCn1ccc2c(Nc3c(Cl)cccc3Cl)nccc21 (single isomer, unassigned) [109b] |  | 7.4 | 6.21 | 62.63 |  |  |  | 
6 | CCCCn1c(C)cc2c(Nc3c(C)ccnc3C)nccc21 | 102.49 | 7.2 | 6.41 | 72.4444 |  |  |  | 
7 | Fc1cc(Cl)c(Nc2nccc3c2ccn3CC2CCO2)c(Cl)c1 (stereo not shown) | 103 | 8.71 | 7.67 | 87 |  |  |  | 
8 | CC(C)=C(F)Cn1ccc2c(Nc3c(C)ccnc3C)nccc21 |  |  |  |  | 99.545 | 7.13 | 73.6534 | 6.66
9 | CCCCn1ccc2c(Nc3c(Cl)cccc3Cl)ncc(C)c21 |  |  |  |  | 104 | 8.25 | 81 | 7.15
10 | CCCC(C)n1ccc2c(Nc3c(Cl)cccc3Cl)nccc21 (single isomer, unassigned) [105a] | 102.725 | 7.51 | 6.07 | 49.32 |  |  |  | 
11 | Cc1cc(-c2cnn(C)c2)cc(C)c1Nc1nccc2c1ccn2CC1CC(F)(F)C1 | 99.265 | 7.99 | 7.56 | 95.2079 |  |  |  | 
12 | FC1(F)CC1CCn1ccc2c(Nc3c(Cl)cccc3Cl)nccc21 (single isomer, unassigned) [109a] | 103.365 | 7.67 | 6.35 | 70.01 |  |  |  | 
13 | Cc1ccnc(C(C)C)c1Nc1nccc2c1ccn2CCC1COC1 | 102 | 7.75 | 7.04 | 81 |  |  |  | 
